Values of other authors as cited in patent US20090156465A1, “DERIVATIVES OF BETA-AMINO ACID AS DIPEPTIDYL PEPTIDASE-IV INHIBITORS” (priority 2005, published 2009).

Settings: rapidly cleaved by DPP IV

## glucose-dependent insulinotropic polypeptide [GIP]
  t1/2: ~7 min
